## scFv variants of Ab-14 (heavy chain) against a SARS-CoV-2 spike peptide

Reference: Engelhart et al. 2022, doi:10.1038/s41597-022-01779-4. File: FLAb, binding data.

Target: peptide PDVDLGDISGINAS, taken from heptad repeat 2 (HR2) of SARS-CoV-2 spike.

Parent scFv Ab-14: VH joined to VL by the linker GGGGSGGGGSGGGGS. Changes lie in the heavy chain CDRs alone.
VH: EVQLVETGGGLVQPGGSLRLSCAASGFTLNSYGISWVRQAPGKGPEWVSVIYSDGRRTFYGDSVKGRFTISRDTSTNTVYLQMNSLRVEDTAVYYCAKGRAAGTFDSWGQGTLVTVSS
VL: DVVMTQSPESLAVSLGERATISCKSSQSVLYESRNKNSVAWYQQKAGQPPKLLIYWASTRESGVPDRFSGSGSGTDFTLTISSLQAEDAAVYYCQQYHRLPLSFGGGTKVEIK

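The parent was found by panning a naive human phage display library on the peptide. Library AAYL49 holds single substitutions and randomly drawn double and triple substitutions in the CDRs. The assay is AlphaSeq: two haploid yeast populations carry antibody and antigen on their surface. Pairs that bind mate more often; barcode pairs of the diploids are counted by sequencing. Scores were corrected for input abundance and mapped to Kd with protein pairs of known affinity run in the same pool. Each pool was mated in three replicate cultures.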

Changes read parent residue, position, new residue, counted from the first residue of the VH shown. Every variant below is changed at L29 of the VH (sequential numbering). The Kd shown is the geometric mean over detected replicates; a lower Kd is a better binder. Where no diploid with the target was found in any replicate, the entry reads "nd": below detection, most likely a poor binder, though not proof of it. Parent in this assay: reference entry 4.4 nM, copy in this library 13 µM (one replicate of three).

The variant L29T S31K R100W gave 26 µM (1 of 3 replicates).
The variant L29Y S107Q gave 21 µM (2 of 3 replicates).
The variant L29D Y52R T104R gave nd (0 of 3 replicates).
The variant L29S Y32M gave nd (0 of 3 replicates).
The variant L29W D54I S63A gave nd (0 of 3 replicates).
The variant L29R I34Q S35M gave 110 µM (2 of 3 replicates).
The variant L29G S31F I34G gave 68 µM (3 of 3 replicates).
The variant L29G gave 1.5 µM (1 of 3 replicates).
The variant L29T G55R R56H gave 12 µM (1 of 3 replicates).
The variant L29C D54M gave nd (0 of 3 replicates).
The variant L29W S35G R100F gave 8.5 µM (1 of 3 replicates).
The variant L29P G33A D54I gave 51 µM (3 of 3 replicates).
The variant F27E L29K G103T gave nd (0 of 3 replicates).
The variant G26L L29F Y32W gave nd (0 of 3 replicates).
The variant L29P I34H S53G gave 30 µM (2 of 3 replicates).
The variant L29D I34A G61W gave 2.0 µM (1 of 3 replicates).
The variant L29M F59R V64K gave 82 µM (2 of 3 replicates).
The variant L29M G61Q G99P gave nd (0 of 3 replicates).
The variant L29R Y32T V64A gave 6.2 µM (1 of 3 replicates).
The variant T28I L29V G55R gave 17 µM (1 of 3 replicates).
The variant L29Y V50H G99L gave 19 µM (1 of 3 replicates).
The variant L29T Y52S G61Q gave 26 µM (3 of 3 replicates).
The variant L29I S63G A102S gave 19 nM (3 of 3 replicates).
The variant L29V V50H T104P gave 430 µM (1 of 3 replicates).
The variant T28G L29A gave 1.3 µM (2 of 3 replicates).
The variant L29G Y60C G61S gave nd (0 of 3 replicates).
The variant L29F I34D G55P gave 650 µM (1 of 3 replicates).
The variant L29S G103T S107T gave 4.5 µM (1 of 3 replicates).
The variant L29D Y52L Y60C gave nd (0 of 3 replicates).
The variant L29W gave nd (0 of 3 replicates).
The variant L29K N30T G103E gave nd (0 of 3 replicates).
The variant L29W F105Y gave nd (0 of 3 replicates).
The variant L29C V50G T104Y gave 160 µM (2 of 3 replicates).
The variant L29Y V50L S53E gave nd (0 of 3 replicates).
The variant L29S S53V gave nd (0 of 3 replicates).
The variant L29R I34Q G61I gave nd (0 of 3 replicates).
The variant L29P R100K A102T gave nd (0 of 3 replicates).
The variant L29I G99I A101L gave nd (0 of 3 replicates).
The variant L29N S63E V64N gave 16 µM (3 of 3 replicates).
The variant F27Y L29A A102Q gave 18 µM (3 of 3 replicates).
The variant L29S S31K Y52I gave nd (0 of 3 replicates).
The variant T28E L29Q S53P gave 12 µM (2 of 3 replicates).
The variant L29P N30I V64A gave nd (0 of 3 replicates).
The variant L29W S63W S107D gave 1.1 µM (2 of 3 replicates).
The variant L29P D54T K65Q gave nd (0 of 3 replicates).

Top 4 of the variants detected in all replicates, tightest first:

{"changes": "L29I S63G A102S", "Kd (apparent)": "19 nM", "detected": "3/3"}
{"changes": "L29N S63E V64N", "Kd (apparent)": "16 µM", "detected": "3/3"}
{"changes": "F27Y L29A A102Q", "Kd (apparent)": "18 µM", "detected": "3/3"}
{"changes": "L29T Y52S G61Q", "Kd (apparent)": "26 µM", "detected": "3/3"}

Empty control strains, which show no peptide, gave a signal in 15% of pairings with library AAYL49; the median was 11 µM and 95% of these signals were weaker than 680 nM. No background was subtracted.